Measured values taken from patent US8716029B1, “Carbon nanotube sensors employing synthetic multifunctional peptides for surface functionalization” (dated 2014).

What was measured:
[1] = Bare SWNT-FET device response to vapors (source-drain current); settings: saturated vapor at 25° C., 1 atm: TNT 12 ppb, RDX 6.6 ppt, HPT 2100 ppm; gate and source-drain bias −0.5 and 0.2V
[2] = tested on: P1ASP1C-functionalized SWNT-FET device; assay: P1ASP1C-functionalized SWNT-FET device response to vapors (source-drain current); settings: saturated vapor at 25° C., 1 atm: TNT 12 ppb, RDX 6.6 ppt, HPT 2100 ppm; gate and source-drain bias −0.5 and 0.2V

**Q.** Which “change of source-drain current (ISD) of bare SWNT-FET upon vapor exposure” value [1] does the source give for `CCCCCC(C)=O` here?
**A.** decreased

**Q.** And the “change of source-drain current (ISD) of P1ASP1C-functionalized SWNT-FET upon vapor exposure” value [2]?
**A.** decrease in the ISD that was similar to that seen with the bare SWNT-FET
